Experimental data as given in patent US20250345350A1, “TREATING PAIN ASSOCIATED WITH CENTRAL SENSITIZATION” (Medicon Pharmaceuticals, Inc., priority 2022, published 2025).

Legend:
[1] = test system: paclitaxel-induced central sensitization in C57/BL/6J mice; settings: day 14; PS hydrogel 5% or 0.7% sulindac 3 times a day; 5% lidocaine cream once 30 min before; pregabalin 10 mg/kg orally once 1 h before
[2] = test system: STZ-induced central sensitization in Sprague-Dawley rats; assay: PWT (von Frey), streptozotocin rat model of central sensitization (Example 4); assay type: in vivo; settings: 0.7% sulindac hydrogel 3 times a day for 1 week; 5% lidocaine cream once 30 min before; pregabalin 10 mg/kg orally once 1 h before
Method: Sprague-Dawley rats were fasted for 4-6 hours before being injected intraperitoneally with 45 mg/kg STZ. This was performed for all experimental groups, except the naive group. In order to prevent hypoglycaemic death, rats received 10% sucrose water as the sole water source for the first 48 hours after injection. In order to ensure only those rats considered diabetic (i.e., having non-fasting plasma glucose levels of >250 mg/dL) were included in the study, blood glucose was measured at 72 hours after the STZ injection.
Four weeks after STZ injection, the rats were randomised into treatment groups. This delay between STZ injection and treatment allows the establishment of chronic pain (allodynia) associated with central sensitization. […] 5% lidocaine cream (positive control) was applied only once to both hind paws of the rats 30 minutes before measurement of PWT.
The rats were split into 8 study groups, with those in the experimental groups (1-4) having an average body weight of about 225 g, and those in the control groups (5-8) having an average body weight of about 335 g, as follows: • 1. Group 1: naive rats (n=5) • 2. Group 2: STZ only (n=6) • 3. Group 3: STZ plus vehicle (n=6) • 4. […] Group 5: STZ plus oral vehicle (n=8) • 6. Group 6: STZ plus 0.7% sulindac hydrogel (n=7) • 7. Group 7: STZ plus 5% lidocaine cream (n=8) • 8.

With `CC(C)C[C@H](CN)CC(=O)O` [pregabalin, reference compound] the “PWT, g Mean ± SEM” value [1] was 1.28 ± 0.10 g and the “PWT, gm Mean ± SEM” value [2] was 27.3 ± 1.7 gm.
